pEC50, pIC50: −log10 of the molar value.
Experiments:
[1] = molecular target: Transient receptor potential cation channel subfamily A member 1 (Macaca mulatta, UniProt A0A1D5QMT1); experiment: Antagonist activity at full length rhesus monkey TRPA1 transfected in HEK293F cells assessed as blockade of MO-induced TRPA1 channel activation by measuring Ca2+ influx in presence of 120 uM MO by FLIPR calcium assay
[2] = molecular target: Transient receptor potential cation channel subfamily A member 1 (Mus musculus, UniProt Q8BLA8); experiment: Agonist activity at full length mouse TRPA1 transfected in HEK293F cells assessed as increase in Ca2+ influx by FLIPR calcium assay
[3] = molecular target: Transient receptor potential cation channel subfamily A member 1 (Homo sapiens, UniProt O75762); experiment: Antagonist activity at full length human TRPA1 transfected in HEK293F cells assessed as blockade of MO-induced TRPA1 channel activation by measuring Ca2+ influx in presence of 30 uM MO by FLIPR calcium assay
[4] = molecular target: Transient receptor potential cation channel subfamily A member 1 (Rattus norvegicus, UniProt Q6RI86); experiment: Agonist activity at full length rat TRPA1 transfected in HEK293F cells assessed as increase in Ca2+ influx by FLIPR calcium assay

Sequences of proteins named here, by UniProt entry; tags and fusion partners are left off. Residues count along the entry.
UniProt A0A1D5QMT1, 1-1144: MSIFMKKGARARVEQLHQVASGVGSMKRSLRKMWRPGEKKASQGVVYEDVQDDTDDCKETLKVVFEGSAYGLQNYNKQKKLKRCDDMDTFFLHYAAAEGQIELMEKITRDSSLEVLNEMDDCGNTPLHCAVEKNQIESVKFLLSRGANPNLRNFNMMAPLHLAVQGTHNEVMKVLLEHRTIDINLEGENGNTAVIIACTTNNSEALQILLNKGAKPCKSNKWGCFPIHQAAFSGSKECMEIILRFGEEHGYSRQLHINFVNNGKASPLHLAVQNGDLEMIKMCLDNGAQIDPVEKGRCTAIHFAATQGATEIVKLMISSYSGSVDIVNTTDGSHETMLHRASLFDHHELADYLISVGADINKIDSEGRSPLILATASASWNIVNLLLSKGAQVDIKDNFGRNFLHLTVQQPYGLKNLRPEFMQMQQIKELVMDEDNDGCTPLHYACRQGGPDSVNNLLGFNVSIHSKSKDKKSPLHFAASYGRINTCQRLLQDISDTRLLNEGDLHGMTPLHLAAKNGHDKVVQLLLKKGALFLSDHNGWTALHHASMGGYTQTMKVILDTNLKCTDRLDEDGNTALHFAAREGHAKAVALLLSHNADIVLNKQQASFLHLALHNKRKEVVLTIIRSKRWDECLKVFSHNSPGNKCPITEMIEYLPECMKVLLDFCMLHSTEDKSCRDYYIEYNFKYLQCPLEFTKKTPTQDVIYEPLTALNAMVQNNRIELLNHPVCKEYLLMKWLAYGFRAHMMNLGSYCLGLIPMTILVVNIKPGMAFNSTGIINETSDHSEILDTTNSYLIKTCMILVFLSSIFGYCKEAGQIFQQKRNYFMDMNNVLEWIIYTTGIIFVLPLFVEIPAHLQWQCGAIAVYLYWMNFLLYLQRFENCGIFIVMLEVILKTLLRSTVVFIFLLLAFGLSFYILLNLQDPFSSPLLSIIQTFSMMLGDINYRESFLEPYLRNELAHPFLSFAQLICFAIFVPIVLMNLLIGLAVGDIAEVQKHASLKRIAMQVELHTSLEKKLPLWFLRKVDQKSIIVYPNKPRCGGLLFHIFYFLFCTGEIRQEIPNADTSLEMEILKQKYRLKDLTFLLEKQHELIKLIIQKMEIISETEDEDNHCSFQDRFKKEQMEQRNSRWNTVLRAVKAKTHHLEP
UniProt Q8BLA8, whole entry, looked up: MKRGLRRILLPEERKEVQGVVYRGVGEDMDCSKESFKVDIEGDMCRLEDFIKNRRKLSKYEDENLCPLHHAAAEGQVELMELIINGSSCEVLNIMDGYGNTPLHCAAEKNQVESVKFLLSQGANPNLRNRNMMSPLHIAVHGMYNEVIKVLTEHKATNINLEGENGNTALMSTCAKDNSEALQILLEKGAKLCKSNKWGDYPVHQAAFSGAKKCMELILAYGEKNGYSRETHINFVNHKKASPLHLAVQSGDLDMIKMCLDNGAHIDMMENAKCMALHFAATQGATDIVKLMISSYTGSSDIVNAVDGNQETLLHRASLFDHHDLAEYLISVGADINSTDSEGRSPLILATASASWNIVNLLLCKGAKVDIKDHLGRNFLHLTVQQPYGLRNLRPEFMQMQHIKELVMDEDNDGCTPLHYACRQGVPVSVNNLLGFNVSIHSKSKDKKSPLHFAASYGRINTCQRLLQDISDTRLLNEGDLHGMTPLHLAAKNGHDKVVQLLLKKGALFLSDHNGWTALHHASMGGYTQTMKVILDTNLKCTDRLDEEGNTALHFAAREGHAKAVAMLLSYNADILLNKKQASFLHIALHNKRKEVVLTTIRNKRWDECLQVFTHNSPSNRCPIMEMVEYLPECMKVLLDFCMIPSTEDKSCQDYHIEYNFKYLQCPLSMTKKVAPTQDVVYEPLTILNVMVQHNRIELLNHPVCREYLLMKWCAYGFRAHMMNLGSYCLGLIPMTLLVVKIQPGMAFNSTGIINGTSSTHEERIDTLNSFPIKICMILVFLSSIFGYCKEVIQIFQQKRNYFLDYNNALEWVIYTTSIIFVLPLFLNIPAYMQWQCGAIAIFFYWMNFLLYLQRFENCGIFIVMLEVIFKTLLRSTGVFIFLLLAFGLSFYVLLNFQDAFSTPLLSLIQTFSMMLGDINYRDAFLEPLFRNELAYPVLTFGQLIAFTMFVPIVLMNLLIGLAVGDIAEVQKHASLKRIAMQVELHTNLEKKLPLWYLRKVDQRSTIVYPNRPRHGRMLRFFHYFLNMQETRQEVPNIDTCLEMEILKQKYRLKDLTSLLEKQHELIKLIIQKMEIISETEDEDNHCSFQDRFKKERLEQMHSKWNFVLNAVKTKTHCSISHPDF
UniProt O75762, whole entry, looked up: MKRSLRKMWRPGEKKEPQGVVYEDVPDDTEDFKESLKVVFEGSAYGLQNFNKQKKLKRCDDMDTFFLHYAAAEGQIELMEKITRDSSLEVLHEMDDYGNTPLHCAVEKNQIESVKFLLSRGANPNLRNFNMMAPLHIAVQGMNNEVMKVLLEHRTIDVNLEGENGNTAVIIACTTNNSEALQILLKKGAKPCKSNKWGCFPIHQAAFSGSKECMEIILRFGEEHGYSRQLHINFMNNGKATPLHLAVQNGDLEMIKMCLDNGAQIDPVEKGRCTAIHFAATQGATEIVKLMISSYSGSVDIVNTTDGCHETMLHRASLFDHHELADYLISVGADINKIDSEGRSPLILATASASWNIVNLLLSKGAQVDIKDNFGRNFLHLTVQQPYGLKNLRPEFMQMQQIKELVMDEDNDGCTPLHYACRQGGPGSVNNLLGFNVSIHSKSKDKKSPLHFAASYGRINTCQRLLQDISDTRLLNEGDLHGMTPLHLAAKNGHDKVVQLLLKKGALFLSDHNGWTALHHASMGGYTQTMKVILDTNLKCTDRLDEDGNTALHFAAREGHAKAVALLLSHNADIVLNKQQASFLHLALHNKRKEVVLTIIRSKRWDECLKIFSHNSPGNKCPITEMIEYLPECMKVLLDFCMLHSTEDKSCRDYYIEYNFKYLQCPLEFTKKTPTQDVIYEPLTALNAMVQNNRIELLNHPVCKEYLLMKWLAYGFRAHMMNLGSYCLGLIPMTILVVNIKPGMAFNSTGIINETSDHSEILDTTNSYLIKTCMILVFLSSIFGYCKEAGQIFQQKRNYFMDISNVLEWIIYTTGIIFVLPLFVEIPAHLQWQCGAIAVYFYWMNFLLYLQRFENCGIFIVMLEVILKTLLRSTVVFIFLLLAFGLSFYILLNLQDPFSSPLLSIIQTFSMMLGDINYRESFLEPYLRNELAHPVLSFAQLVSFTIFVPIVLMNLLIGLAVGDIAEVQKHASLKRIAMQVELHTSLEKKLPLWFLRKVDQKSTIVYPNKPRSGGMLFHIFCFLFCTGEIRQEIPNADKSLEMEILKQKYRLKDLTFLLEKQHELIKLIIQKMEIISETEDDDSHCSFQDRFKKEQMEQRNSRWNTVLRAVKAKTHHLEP
UniProt Q6RI86, whole entry, looked up: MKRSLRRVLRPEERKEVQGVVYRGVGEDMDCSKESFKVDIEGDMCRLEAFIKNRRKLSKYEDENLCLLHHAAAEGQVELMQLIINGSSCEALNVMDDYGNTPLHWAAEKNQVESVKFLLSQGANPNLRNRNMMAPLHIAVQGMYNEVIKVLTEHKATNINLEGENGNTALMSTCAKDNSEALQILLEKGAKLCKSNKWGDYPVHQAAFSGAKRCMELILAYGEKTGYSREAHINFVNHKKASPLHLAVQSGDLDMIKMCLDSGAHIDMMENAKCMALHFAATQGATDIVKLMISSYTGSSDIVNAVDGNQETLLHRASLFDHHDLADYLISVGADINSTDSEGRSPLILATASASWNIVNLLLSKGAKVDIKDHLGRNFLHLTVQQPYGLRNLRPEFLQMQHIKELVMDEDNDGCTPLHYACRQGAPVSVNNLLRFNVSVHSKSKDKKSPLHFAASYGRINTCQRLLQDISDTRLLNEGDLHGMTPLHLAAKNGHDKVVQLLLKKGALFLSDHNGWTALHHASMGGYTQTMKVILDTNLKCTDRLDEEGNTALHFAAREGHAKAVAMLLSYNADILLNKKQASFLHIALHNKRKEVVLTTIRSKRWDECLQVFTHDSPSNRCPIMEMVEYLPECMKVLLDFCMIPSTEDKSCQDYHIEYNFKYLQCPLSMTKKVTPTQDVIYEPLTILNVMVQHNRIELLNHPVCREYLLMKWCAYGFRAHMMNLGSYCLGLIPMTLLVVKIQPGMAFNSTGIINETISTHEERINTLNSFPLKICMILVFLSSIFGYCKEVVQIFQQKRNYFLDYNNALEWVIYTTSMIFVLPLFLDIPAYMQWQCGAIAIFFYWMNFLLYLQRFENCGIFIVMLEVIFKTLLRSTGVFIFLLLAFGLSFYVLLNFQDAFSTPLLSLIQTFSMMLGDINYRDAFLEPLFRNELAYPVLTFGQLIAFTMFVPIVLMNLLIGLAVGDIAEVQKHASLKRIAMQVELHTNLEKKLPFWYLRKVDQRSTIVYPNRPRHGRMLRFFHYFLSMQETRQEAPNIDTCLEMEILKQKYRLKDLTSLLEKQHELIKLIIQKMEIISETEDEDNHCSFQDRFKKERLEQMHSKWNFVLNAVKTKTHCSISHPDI

In the case of `Cc1ccc(C(=O)NC(Sc2ccc([N+](=O)[O-])cc2)C(Cl)(Cl)Cl)cc1` (centres undefined), the pIC50 [1] was 5.57, the pEC50 [2] was 6.03 and the pIC50 [3] was 6.00. It also gave a pEC50 [4] of 6.06.

From ChEMBL document CHEMBL5705895, “Species comparison and pharmacological characterization of human, monkey, rat, and mouse TRPA1 channels” (J Pharmacol Exp Ther, 2012)
